The chains behind the UniProt entries cited, without tags or fusion partners.
UniProt P32245, whole entry: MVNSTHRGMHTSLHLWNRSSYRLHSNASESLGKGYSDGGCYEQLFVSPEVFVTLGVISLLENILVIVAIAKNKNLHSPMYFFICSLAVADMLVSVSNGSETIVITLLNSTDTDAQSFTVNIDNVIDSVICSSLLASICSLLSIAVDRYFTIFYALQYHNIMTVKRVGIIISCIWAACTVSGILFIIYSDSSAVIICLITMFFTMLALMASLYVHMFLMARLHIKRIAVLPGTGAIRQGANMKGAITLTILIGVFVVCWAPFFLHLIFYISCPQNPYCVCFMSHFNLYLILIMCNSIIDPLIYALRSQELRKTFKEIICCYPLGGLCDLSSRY

According to ChEMBL document CHEMBL1143618, “Discovery of a beta-MSH-derived MC-4R selective agonist” (J Med Chem, 2005):

Biological target: Melanocortin receptor 4 (Homo sapiens, UniProt P32245)
Assay: Agonist activity at human Melanocortin-4 receptor as peptide required for 50% maximal cAMP release (n > or =2)
Assay type: functional

SMILES | pEC50
CC(=O)N[C@H](CCCNC(=N)N)C(=O)N[C@H]1CSSC[C@@H](C(N)=O)NC(=O)[C@H](Cc2c[nH]c3ccccc23)NC(=O)[C@H](CCCNC(=N)N)NC(=O)[C@@H](Cc2ccccc2)NC(=O)[C@H](Cc2c[nH]cn2)NC(=O)[C@H](CCC(=O)O)NC1=O | 9.55
CC(=O)N[C@@H](CCCNC(=N)N)C(=O)N[C@H]1CSSC[C@@H](C(N)=O)NC(=O)[C@H](Cc2c[nH]c3ccccc23)NC(=O)[C@H](CCCNC(=N)N)NC(=O)[C@@H](Cc2ccccc2)NC(=O)[C@H](Cc2c[nH]cn2)NC(=O)[C@H](CCC(=O)O)NC1=O | 9.59

pEC50: −log10 of the molar value.
